Antibody variant affinities, Ab-14 light chain, assay B

Values reported by Li et al. 2023, doi:10.1038/s41467-023-39022-2 (FLAb copy).

Target peptide (SARS-CoV-2 spike, HR2 region): PDVDLGDISGINAS

The variants keep the heavy chain, the linker and the frameworks of Ab-14 (scFv order VH, a (GGGGS)3 linker, VL).
VH: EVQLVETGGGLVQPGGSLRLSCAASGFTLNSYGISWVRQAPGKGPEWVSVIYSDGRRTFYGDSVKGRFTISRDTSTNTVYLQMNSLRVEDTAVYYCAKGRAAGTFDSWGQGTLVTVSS
VL: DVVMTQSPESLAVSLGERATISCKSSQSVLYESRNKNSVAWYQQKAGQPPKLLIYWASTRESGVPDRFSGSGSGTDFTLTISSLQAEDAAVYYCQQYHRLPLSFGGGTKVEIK

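The starting antibody came from a phage panning campaign against this peptide. This is the validation round: designs drawn from the data on random variants, tested in the same kind of assay. Their group label is 14L_En_HC (En: ensemble of fine-tuned language models; HC: hill climbing; a sequence that several methods proposed may carry one label only). The scFvs were displayed on barcoded MATa yeast, the peptide on MATalpha yeast. Binding brings cells together so that they mate, and sequencing counts the barcode pairs among the diploids. The ratio of observed to expected reads was calibrated, replicate by replicate, on BCL2-family standards whose Kd was known from biolayer interferometry. Each pool was mated in six replicate cultures.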

Each variant is given by its three light chain CDRs, as the data file delimits them; those of the parent are KSSQSVLYESRNKNSVA, WASTRES, QQYHRLPLS.
Affinities are written as log10 Kd with Kd in nM; a lower number is a better binder.
"nd" means that the variant was in the library but no mating with the target was seen in that replicate; the authors take this as a sign of poor binding, and no number exists.
The authors averaged sequences with at least three values out of six and counted those with two or fewer as poor binders.
Empty control strains, which show no peptide, gave a signal in 4% of pairings with all light chain designs; the median was 2.64 and 95% of these signals were weaker than 1.59. No background was subtracted. For each scFv, signals with the empty controls are counted beside the result, with their mean in brackets.
Values of this round are not directly comparable with the first-round values of the same sequences.
Of ten entries with the parent sequence, four were seen in most replicates (averages 0.34 to 2.37), three in one and three in none, so single entries are noisy.

CDR-L1	CDR-L2	CDR-L3	log10 Kd (nM) by replicate	control signals
KISQTVLYQGRLMNAVA	QMSTREN	QQYDRLPLS	0.68 / 0.92 / 0.68 / 0.41 / 0.57 / 0.60	0 of 18
KLLQSVNYGMRALNSVA	QMETREE	QQYDRLPLS	0.80 / 0.46 / 0.49 / -0.05 / 0.58 / 0.52	0 of 18
TLTQVQGMESHNKNNVA	DLSTRGS	QQYHRLPLS	0.09 / -0.08 / -0.23 / 0.03 / -0.04 / 0.05	1 of 18 (2.58)
KLPMATMQESVSKNSVA	ELSTRGS	QQYHRLPLS	0.25 / 0.15 / 0.47 / 0.13 / 0.23 / 0.13	1 of 18 (1.38)
KLRMMTLTEGYFKNSVA	QASTRAN	QSYHRLPLS	1.10 / 1.57 / 1.34 / 1.05 / 1.27 / 1.62	2 of 18 (2.46)
TLTQVTMVEQYNKNSVA	QASTRLE	QDYHRLPLS	nd / nd / nd / nd / nd / nd	0 of 18
KLRQLMHIESFNKNNVA	EMTTRES	QSYDRLPLS	0.86 / nd / 1.13 / 2.46 / 1.64 / 2.07	0 of 18
HISPMFMVESRLKNSVA	QTSTRES	QQYDRLPLS	0.71 / 0.35 / 0.21 / -0.02 / -0.12 / 0.19	1 of 18 (2.99)
HISMSMNYLSVNKNSIA	EESTRED	QQYHRLPLS	nd / 1.46 / 0.59 / 1.56 / 1.63 / 1.63	1 of 18 (2.17)
ILSDSVHTLSRNKNSVA	DNSTRES	QQYDRLPLS	2.14 / 1.81 / 2.73 / 1.27 / 1.75 / nd	2 of 18 (2.19)
TISQSTYWETFNKNNVA	QTSTREE	QDYDRLPLS	nd / 2.08 / nd / 1.77 / 2.77 / nd	0 of 18
KVSQSVMMLQRNKNSVA	DNSTSGS	QQYHRLPLS	nd / 2.03 / 2.08 / 2.52 / 1.97 / nd	1 of 18 (2.11)
KCSQNVLIMGRGPNNVA	EMTTRED	QQYDRLPLS	0.87 / 1.10 / 0.71 / 0.77 / 0.72 / 0.67	1 of 18 (3.18)
KLGASVGYESRNKSRVA	DNSTRES	QQYDRLPLS	2.93 / 3.49 / 2.23 / 3.41 / 3.12 / 3.06	4 of 18 (3.56)
KINQLMNIEQMNSKSVA	HTSTREN	QQYHRLPLS	0.43 / 0.13 / 0.22 / 0.34 / 0.07 / 0.37	1 of 18 (4.16)
KISMLQRFQSEAKNNIA	EMSRREE	QQYHRLPLS	-0.03 / 0.39 / 0.27 / -0.16 / 0.04 / 0.32	0 of 18
ALYDVTRMESNKKNSIA	DMSTRES	QQYHRLPLS	0.19 / 0.51 / 0.25 / 0.19 / 0.59 / 0.24	0 of 18
KIGQQVTYESTNKNAIA	QMTTREE	QQYHHLPLS	0.16 / 0.56 / 0.13 / -0.06 / -0.01 / 0.30	4 of 18 (2.42)
KISYMGEHFSTNHSAIA	QASTREA	QQYHRLPIS	1.58 / 1.69 / nd / 1.62 / 1.50 / 2.12	0 of 18
TIGQVMHYESENKNSVA	QTSTREE	QDYHRLPLS	0.47 / 0.67 / 0.39 / 0.77 / 0.65 / 2.09	0 of 18
KISQMFNVGTKNTNSLA	EMNTRGD	QDYHRLPLS	nd / nd / 0.91 / 1.17 / nd / nd	0 of 18
KLLQSTVIESFNKNNVA	EMTTRES	QSYDRLPLS	nd / 2.28 / nd / 2.71 / nd / nd	0 of 18
KLSIAGLHQSIDKKSIA	ERSTREN	QQYHRLPLS	0.41 / 0.30 / 0.29 / -0.05 / 0.46 / 0.49	0 of 18
MLSDLVKMGSRNGNSVA	DNSTRGS	QQYDRLPLS	nd / 2.41 / 2.19 / nd / nd / 2.09	0 of 18
TLSDLMYMESRNYNSVA	DLVKRES	QQYHRLPLS	0.20 / -0.01 / 0.01 / -0.20 / -0.08 / 0.11	2 of 18 (4.10)
MFSQLVYMGSRTKNAVA	QASTREN	QQYHRLPLS	nd / nd / nd / nd / nd / nd	0 of 18
TISQSTYWESRNKNSVA	QTTTREE	QDYDRLPLS	1.85 / 2.92 / 1.58 / 2.54 / 3.29 / 1.66	1 of 18 (1.82)
HLLQTVMYGSYRKNSVA	HAQTREN	QQYHRLPLS	nd / 2.92 / nd / 3.46 / nd / 3.04	1 of 18 (2.25)
KFGQSVLMGSYVRNSVA	QSTTREN	QQYDRLPLS	0.83 / 0.00 / 0.01 / -0.25 / 0.04 / 0.07	0 of 18
MLSDLVKMGSRNENSVA	DNSTRGS	QQYDRLPLS	nd / nd / nd / nd / nd / nd	0 of 18
TLGTSTLEESRNKNSVA	EMSLREA	QSYNRLPLS	2.02 / 2.46 / 1.95 / 1.60 / 1.55 / 2.22	0 of 18
KIYAATMLESTDKNSIA	DLTNRGN	QQYHRLPLS	1.03 / 1.21 / 0.84 / 0.52 / 0.96 / 0.71	0 of 18
KLSQSVRMESFVKDNVA	ENSTREA	QDYDRLPLS	nd / nd / nd / 2.81 / nd / nd	0 of 18
KLSVSYLFESIEKNSVA	ERSTRES	QDYNRLPLS	3.53 / 1.57 / 1.15 / 2.17 / 1.71 / 2.78	1 of 18 (2.57)
TISQSVNMMSHGRNSVA	QAEMRES	QQYDRLPLS	0.98 / 0.50 / 0.57 / 0.76 / 0.67 / 0.81	1 of 18 (5.05)
HISYSMQHLSKNKNSVA	NQQTREQ	QQYHRLPLS	nd / nd / nd / nd / 2.10 / 1.12	0 of 18
KLLQSVNYGMRALNSVA	QMETRED	QQYDRLPLS	nd / 2.96 / 1.77 / 2.51 / 3.18 / nd	3 of 18 (2.92)
MLSDLVMQGSYYRNSVA	QESTRAD	QQYHHLPLS	0.75 / 0.89 / 0.81 / 0.71 / 0.84 / 0.77	2 of 18 (2.78)
HIQQSVGMTSRNKNSVA	ENSTRED	QQYDRLPLS	1.85 / nd / nd / 3.20 / 2.47 / nd	1 of 18 (2.44)
TLSQSWGMESHHKNNVA	QEQTREK	QQYFRLPIS	2.00 / 2.22 / 1.88 / 1.85 / 1.74 / 1.72	0 of 18
KIMQSLNYEMFNKNSVA	GQETRER	QSYHRLPLS	1.75 / 2.55 / 1.75 / 1.85 / 2.55 / 4.27	0 of 18
HVSESIFAQMKMRNSVA	ENSTRES	QQYDRLPLS	2.19 / 2.12 / nd / nd / 2.56 / nd	0 of 18
IISGHMLMESRNKNSVA	NAETREY	QHYDRLPLS	1.78 / 1.77 / 1.34 / 1.31 / 1.20 / 1.70	2 of 18 (2.41)
KLSQATRMESRNKASVA	ENSTREE	QQYFRLPLS	0.02 / 0.08 / -0.04 / -0.07 / 0.08 / 0.11	2 of 18 (2.67)
KLSQSVRMESFNKDNVA	ENSTREA	QDYHRLPLS	nd / nd / 2.06 / nd / 2.09 / 1.55	0 of 18
TVGQVTMVESYNKDSVA	QASTRLE	QDYHRLPLS	2.66 / 1.54 / nd / 2.01 / 2.08 / 2.48	0 of 18
HISQMWMLESHNKNNVA	EESTRED	QSYFRLPLS	0.50 / -0.38 / -0.04 / -0.33 / -0.30 / -0.55	0 of 18
HVSEMIFAQSKMRNSVA	ENNTREA	QQYDRLPLS	nd / nd / 2.01 / nd / nd / nd	0 of 18
KIGQQVTYESTHKNAIA	QMTTREE	QQYHRLPLS	0.31 / 0.40 / 0.38 / 0.10 / 0.23 / 0.28	0 of 18

Again, the first 3 entries without any signal:

CDR-L1	CDR-L2	CDR-L3	log10 Kd (nM) by replicate	control signals
TLTQVTMVEQYNKNSVA	QASTRLE	QDYHRLPLS	nd / nd / nd / nd / nd / nd	0 of 18
MFSQLVYMGSRTKNAVA	QASTREN	QQYHRLPLS	nd / nd / nd / nd / nd / nd	0 of 18
MLSDLVKMGSRNENSVA	DNSTRGS	QQYDRLPLS	nd / nd / nd / nd / nd / nd	0 of 18